Values quoted from earlier work as cited in article PMC5758054 (Journal of natural products, 2017).

Tested on: DPP4
Conditions: ref [35]

Question: For `N#C[C@@H]1CCCN1C(=O)CNC12CC3CC(CC(O)(C3)C1)C2` [Vildagliptin], which “prevention of GLP-1 degradation by DPP4 (in words)” value is on record?
Answer: prevent DPP4 from degrading glucagon-like peptide 1 (GLP-1)
